Measurements published in ChEMBL document CHEMBL1153282, “N-substituted 2'-(aminoaryl)benzothiazoles as kinase inhibitors: hit identification and scaffold hopping” (Bioorg Med Chem Lett, 2009).

Sequences of proteins named here, by UniProt entry; tags and fusion partners are left off. Residues count along the entry.
UniProt P06213, 28-758 limits assumed: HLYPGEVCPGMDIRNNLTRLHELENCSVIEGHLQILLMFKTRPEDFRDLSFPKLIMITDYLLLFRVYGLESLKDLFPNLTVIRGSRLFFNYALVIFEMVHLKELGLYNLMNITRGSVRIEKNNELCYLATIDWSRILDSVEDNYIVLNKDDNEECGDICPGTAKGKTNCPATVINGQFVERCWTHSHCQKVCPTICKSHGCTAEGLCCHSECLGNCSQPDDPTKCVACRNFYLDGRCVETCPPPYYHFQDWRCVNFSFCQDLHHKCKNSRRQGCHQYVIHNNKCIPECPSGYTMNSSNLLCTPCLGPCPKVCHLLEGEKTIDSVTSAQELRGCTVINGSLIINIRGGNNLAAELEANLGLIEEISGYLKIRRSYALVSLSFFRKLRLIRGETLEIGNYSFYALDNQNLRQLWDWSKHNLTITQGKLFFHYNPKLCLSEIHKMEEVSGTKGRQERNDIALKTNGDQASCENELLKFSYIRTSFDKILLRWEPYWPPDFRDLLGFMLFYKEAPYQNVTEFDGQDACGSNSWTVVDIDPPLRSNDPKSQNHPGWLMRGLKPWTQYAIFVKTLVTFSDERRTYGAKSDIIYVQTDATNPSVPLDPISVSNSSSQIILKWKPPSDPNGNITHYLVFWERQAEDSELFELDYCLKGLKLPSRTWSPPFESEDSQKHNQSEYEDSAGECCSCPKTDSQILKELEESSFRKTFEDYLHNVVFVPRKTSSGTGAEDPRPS
UniProt P06213, 763-1382 limits assumed: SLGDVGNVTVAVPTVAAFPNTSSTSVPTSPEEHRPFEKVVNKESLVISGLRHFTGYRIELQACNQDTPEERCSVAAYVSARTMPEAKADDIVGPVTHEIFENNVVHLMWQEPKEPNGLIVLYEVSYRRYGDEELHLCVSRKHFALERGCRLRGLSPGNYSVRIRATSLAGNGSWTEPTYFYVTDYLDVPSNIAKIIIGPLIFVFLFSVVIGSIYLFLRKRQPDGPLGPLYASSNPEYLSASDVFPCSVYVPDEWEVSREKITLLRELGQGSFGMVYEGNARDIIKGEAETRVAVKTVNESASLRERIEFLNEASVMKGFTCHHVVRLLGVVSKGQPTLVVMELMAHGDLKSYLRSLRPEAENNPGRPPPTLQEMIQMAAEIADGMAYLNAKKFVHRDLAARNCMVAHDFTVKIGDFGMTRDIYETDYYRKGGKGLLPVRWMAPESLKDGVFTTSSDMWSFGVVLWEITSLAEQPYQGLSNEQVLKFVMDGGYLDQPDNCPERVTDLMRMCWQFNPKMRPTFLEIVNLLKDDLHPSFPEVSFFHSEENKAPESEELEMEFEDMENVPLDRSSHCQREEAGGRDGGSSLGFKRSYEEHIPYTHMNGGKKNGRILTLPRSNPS
UniProt P00533, whole entry: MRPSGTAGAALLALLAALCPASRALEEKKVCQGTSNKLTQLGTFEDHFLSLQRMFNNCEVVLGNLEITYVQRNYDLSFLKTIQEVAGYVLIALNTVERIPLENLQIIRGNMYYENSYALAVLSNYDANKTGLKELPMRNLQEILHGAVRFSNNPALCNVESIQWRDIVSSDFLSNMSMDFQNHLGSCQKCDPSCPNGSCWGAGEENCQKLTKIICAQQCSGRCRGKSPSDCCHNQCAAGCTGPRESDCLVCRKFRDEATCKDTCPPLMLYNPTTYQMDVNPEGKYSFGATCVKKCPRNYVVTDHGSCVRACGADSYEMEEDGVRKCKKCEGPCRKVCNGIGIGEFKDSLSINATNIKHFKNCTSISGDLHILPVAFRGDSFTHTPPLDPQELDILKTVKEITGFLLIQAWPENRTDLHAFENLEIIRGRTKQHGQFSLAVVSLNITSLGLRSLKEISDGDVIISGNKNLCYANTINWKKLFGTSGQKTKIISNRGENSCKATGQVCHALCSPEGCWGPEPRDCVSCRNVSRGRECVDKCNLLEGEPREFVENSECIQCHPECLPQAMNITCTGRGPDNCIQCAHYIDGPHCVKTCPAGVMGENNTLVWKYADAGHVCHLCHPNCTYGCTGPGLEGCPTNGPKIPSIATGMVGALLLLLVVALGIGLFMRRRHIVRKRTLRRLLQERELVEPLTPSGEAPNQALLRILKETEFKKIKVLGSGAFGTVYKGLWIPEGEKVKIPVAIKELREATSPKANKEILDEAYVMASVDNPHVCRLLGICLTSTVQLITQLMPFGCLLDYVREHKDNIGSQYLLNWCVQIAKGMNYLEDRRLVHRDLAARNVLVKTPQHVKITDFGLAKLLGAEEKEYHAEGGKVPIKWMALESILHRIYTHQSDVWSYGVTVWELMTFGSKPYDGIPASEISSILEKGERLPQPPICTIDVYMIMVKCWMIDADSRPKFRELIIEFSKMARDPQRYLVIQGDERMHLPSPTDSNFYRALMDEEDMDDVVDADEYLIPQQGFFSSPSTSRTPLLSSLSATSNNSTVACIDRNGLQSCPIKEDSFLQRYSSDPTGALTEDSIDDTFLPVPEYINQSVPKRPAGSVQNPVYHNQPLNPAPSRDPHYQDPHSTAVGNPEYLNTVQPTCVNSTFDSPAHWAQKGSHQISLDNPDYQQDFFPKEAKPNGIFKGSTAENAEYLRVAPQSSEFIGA
UniProt P04626, whole entry: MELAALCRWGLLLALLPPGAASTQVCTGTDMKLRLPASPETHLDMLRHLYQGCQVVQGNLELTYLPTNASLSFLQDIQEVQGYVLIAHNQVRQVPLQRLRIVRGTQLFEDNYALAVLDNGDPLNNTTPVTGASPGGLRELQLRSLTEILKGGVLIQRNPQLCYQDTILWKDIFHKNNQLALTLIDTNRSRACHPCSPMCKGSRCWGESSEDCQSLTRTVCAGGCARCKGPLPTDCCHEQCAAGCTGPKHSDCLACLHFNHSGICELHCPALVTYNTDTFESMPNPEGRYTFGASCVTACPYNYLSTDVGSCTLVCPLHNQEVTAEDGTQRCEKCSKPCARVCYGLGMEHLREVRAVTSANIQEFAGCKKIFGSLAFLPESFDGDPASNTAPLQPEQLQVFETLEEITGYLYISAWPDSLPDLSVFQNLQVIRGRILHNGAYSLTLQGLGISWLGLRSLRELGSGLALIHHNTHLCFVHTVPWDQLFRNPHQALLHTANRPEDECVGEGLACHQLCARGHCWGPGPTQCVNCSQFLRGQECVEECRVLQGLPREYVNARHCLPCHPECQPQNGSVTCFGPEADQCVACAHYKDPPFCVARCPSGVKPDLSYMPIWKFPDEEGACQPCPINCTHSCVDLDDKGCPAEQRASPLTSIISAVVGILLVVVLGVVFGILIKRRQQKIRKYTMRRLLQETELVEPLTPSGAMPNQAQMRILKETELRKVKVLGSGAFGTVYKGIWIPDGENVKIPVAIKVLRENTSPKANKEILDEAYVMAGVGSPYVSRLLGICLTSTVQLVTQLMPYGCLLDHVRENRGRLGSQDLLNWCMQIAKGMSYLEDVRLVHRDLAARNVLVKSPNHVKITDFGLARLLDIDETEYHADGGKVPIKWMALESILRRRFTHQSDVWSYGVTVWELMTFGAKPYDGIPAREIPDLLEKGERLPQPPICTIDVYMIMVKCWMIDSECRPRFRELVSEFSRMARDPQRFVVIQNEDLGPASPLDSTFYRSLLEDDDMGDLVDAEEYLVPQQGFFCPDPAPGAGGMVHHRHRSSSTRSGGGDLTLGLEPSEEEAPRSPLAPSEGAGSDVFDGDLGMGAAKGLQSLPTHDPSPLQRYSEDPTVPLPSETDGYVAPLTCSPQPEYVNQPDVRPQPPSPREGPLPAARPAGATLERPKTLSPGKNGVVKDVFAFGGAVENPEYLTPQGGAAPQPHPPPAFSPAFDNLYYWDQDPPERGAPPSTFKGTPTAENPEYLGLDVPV
UniProt P35968, whole entry: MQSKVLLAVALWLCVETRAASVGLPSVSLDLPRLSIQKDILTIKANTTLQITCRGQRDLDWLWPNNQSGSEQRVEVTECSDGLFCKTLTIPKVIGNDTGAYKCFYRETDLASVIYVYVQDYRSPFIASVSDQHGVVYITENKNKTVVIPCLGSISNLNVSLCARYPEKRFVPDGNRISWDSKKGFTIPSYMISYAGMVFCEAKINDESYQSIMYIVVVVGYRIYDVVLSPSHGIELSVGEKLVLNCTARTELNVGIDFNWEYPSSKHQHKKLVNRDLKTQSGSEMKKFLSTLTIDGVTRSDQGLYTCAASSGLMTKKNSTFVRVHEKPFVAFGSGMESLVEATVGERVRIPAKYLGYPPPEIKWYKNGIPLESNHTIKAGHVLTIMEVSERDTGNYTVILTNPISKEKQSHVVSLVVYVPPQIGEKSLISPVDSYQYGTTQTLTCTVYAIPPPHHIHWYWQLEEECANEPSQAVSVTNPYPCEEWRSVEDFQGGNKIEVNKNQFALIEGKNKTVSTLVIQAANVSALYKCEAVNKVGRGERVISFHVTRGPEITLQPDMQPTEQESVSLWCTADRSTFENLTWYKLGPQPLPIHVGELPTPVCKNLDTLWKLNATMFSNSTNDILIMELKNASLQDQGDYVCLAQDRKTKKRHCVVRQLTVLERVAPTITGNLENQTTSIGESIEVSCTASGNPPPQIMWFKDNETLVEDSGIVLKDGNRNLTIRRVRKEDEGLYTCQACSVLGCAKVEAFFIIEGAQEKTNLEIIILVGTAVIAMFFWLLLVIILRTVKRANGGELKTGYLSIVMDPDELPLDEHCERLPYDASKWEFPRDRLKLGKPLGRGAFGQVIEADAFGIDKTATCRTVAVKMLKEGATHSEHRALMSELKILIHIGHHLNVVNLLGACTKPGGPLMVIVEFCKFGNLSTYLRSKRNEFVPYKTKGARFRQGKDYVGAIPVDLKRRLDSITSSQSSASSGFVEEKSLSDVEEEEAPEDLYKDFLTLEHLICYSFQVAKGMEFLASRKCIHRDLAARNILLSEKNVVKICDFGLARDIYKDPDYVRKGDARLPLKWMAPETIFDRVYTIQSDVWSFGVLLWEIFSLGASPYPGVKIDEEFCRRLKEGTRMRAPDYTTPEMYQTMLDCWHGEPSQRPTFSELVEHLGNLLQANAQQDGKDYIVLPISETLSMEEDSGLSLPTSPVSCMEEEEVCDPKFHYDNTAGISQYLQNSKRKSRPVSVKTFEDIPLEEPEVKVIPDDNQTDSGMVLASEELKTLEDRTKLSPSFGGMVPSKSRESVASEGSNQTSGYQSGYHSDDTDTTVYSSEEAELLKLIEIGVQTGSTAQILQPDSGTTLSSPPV

Columns and labels:
Insulin receptor = Insulin receptor (Homo sapiens, UniProt P06213); assay: Inhibition of insulin receptor by virtual HTS assay
[1] = target: Epidermal growth factor receptor (Homo sapiens, UniProt P00533); assay: Inhibition of EGFR by virtual HTS assay
[2] = target: Receptor tyrosine-protein kinase erbB-2 (Homo sapiens, UniProt P04626); assay: Inhibition of ErbB2 by virtual HTS assay
[3] = target: Vascular endothelial growth factor receptor 2 (Homo sapiens, UniProt P35968); assay: Inhibition of VEGFR2 by virtual HTS assay

CNc1ccnc(Nc2ccc(-c3nc4ccccc4s3)cc2)n1
IC50 (Insulin receptor): > 10 µM
IC50 [1]: > 10 µM
IC50 [2]: > 10 µM

COc1cc2nc(Nc3cc(C)[nH]n3)nc(Nc3cccc(-c4nc5ccccc5s4)c3)c2cc1OC
IC50 [3]: 1.9 µM
